Earlier results as cited in PMC2834170 (Bioorganic & medicinal chemistry letters, 2010).

Test system: μ, δ and κ opioid receptors
Conditions: ratio of Ki values; ref [6]; cited from earlier work

Oc1ccc2c(c1)[C@@]13CCCC[C@H]1[C@@H](C2)N(CC1CCC1)CC3 [Compound 1, butorphan]
Selectivity μ/δ/κ: 3/75/1
